Growth rescue data for 26 compounds are collected here from PubChem BioAssay AID2716 (Broad Institute, 2010).

This is a selection; strong and weak results do not stand in their true shares. Calls of active or inactive are those of the source.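 Rule for the calls: active = every valid replicate shows activation above 250% relative to neutral control wells; inactive = the rest, any valid replicate at or below 250%.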

A short description of this test: restored growth of temperature-sensitive Mot1-301 yeast – S. cerevisiae, ATP luminescence, 38.5C, SUMOylation pathway inhibitor project, primary screen (AID 2716).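 Note: OY570 slx delta 5 strain wells were the positive control but not used for scaling.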 The conditions noted are these: S. cerevisiae Mot1-301 growth rescue, at 18.8 µM, stronger effect = higher value, percent above DMSO median, 100 means doubled.
In the case of `O=[N+]([O-])c1ccc(Nc2ccc(Oc3ccc([N+](=O)[O-])cc3[N+](=O)[O-])cc2)c([N+](=O)[O-])c1`, the growth rescue is inactive: 65%.
As for `O=P(Nc1ccccn1)(c1cccc2ccccc12)c1cccc2ccccc12`, the figure is inactive: 92.6%; as for `Cc1cc(SC(NC=O)C(Cl)(Cl)Cl)ncn1` (stereo unspecified), inactive: -12.7%; as for `CCOC(=O)Nc1cccc([As](=O)(O)O)c1`, inactive: -18.5%.
The result for `O=C(COc1ccccc1)OC1CN2CCC1CC2` (stereo unspecified) reads inactive: -10.9%.
Consider `O=C(Nc1ccncc1[N+](=O)[O-])c1ccc([N+](=O)[O-])cc1[N+](=O)[O-]`, for which the growth rescue is inactive: -5.16%.
In the case of `COP1(=S)c2c(C)nn(CCC#N)c2N=C(c2ccc(F)cc2)N1C` (stereo unspecified), the growth rescue is inactive: 5.3%.
As for `CCC(C)N(CC(C)C)C(=S)SC(NC(C)=O)C(Cl)(Cl)Cl` (stereo unspecified), the figure is inactive: -8.47%; as for `CCOC(=O)c1ccc(NC(=O)C(C)(CCl)SC)cc1` (stereo unspecified), inactive: 193%; as for `O=C(OC1CN2CCC1CC2)c1cccc([N+](=O)[O-])c1` (stereo unspecified), inactive: 415%.
The result for `CC(=O)N1C2C3N(C(C)=O)C1C1N(C(C)=O)C(C(N1C(C)=O)N3C(C)=O)N2C(C)=O` reads inactive: 4.57%; that for `Cc1ccc(NP(=O)(Oc2ccccc2)Oc2ccccc2)nc1`, inactive: 186%.
On to `CCc1nc2c(n1)c1c(non1O)c1c2no[n+]1[O-]`, for which the growth rescue was inactive: 0.721%.
As for `O=[N+]([O-])c1cc([N+](=O)[O-])c(CCNc2ccccc2)c([N+](=O)[O-])c1`, the growth rescue was inactive: 71.6%.
The result for `COc1ccc(C2=NCC(CBr)S2)cc1` (stereo unspecified) reads inactive: 10.1%.
On to `CC(C)=N/N=C(\N)N[N+](=O)[O-]`, for which the growth rescue is inactive: 1.72%.
For the compound `CN(C)C(=O)OCCc1n(C)cc[n+]1C`, the growth rescue was inactive: -12.3%.
Regarding `CC1CCN(C(=O)Oc2c(Cl)cc(Cl)c3cccnc23)CC1`, the growth rescue is inactive: 0.623%.
In the case of `Nc1ccc([As](=O)(O)c2ccc(N)cc2)cc1`, the growth rescue is inactive: -23%.
Turning to `C[N+]1=C2C=CC=CC=C2SC12C([N+](=O)[O-])=CC([N+](=O)[O-])=C[C-]2[N+](=O)[O-]` (stereo unspecified), the growth rescue was inactive: -2.48%.
For the compound `CCN(/C(=N/P(=O)(N1CCOCC1)N1CCOCC1)N1CCOCC1)c1ccc(OC)cc1`, the growth rescue is inactive: -6.84%.
Take `O=C(Nc1cc([As](=O)(O)O)ccc1O)c1ccccc1`: the growth rescue was inactive: -7.18%.
In the case of `O=[N+]([O-])c1cccc(NC2=NCC(CBr)S2)c1` (stereo unspecified), the growth rescue is inactive: 6.97%.
Take `O=C(O)CNc1ccc([As](=O)(O)O)cc1`: the growth rescue was inactive: 16.2%.
On to `CC(C)(C)C(=O)NC(Sc1ccncn1)C(Cl)(Cl)Cl` (stereo unspecified), for which the growth rescue is inactive: -5.53%.
For the compound `O=[N+]([O-])c1ncn(CCn2ncnc2[N+](=O)[O-])n1`, the growth rescue was inactive: -4.45%.
